“Also recorded” adds a separate entry of the source.
Test system: CD34+ HE cells
Assay: Stroma-free T cell differentiation with or without IL-3 in the first differentiation medium
Type: cell-based, human
Details: IL-3 during first week
Experimental: 24 well non-tissue culture treated plates were coated with 10 μg/ml recombinant human DL4-Fc protein (Life Technologies, A42510) and 2 μg/ml VCAM-1 (Shukla et al., 2017) (R&D, 862VC100) in PBS for 2 hours at 4° C. CD34+ HE cells (1×10^5 cells/well) were then seeded on DL4-coated plates and cultured in SFEMII (StemCell Tech, 09605) media supplemented with 10% BIT serum substitute (StemCell Tech, 09500), 2 mM L-Glutamine (Gibco, 35050061), 1 mM sodium pyruvate (Gibco, 11360070), 50 μg/ml 2-phospho-L-ascorbic acid (Huijskens et al., 2014) (sigma, 49752), 55 μM 2-Mercaptoethanol (Gibco, 21985023), 1 mM None-essential amino acids (Gibco, 11140050), 1% penicillin-streptomycin (Corning, 30002CI), 30 ng/ml SCF, 20 ng/ml FLT3, 30 ng/ml IL-7, 5 ng/ml IL-3 (first week only), and 5 ng/ml TPO for 2 weeks to induced the differentiation into proT cells. For the production of EZ-T cells, EZH1 knockdown was performed via lentiviral transduction (MOI=5) after 24 hours of HE seeding. After 2 weeks of differentiation, SCF and TPO were withdrawn from the media, and the proT cells were replated into new DL4-coated plates and cultured in the presence of 20 ng/ml FLT3 and 15 ng/ml IL-7 till week 5, followed by 1 week of treatment with CD3/CD28 T activator (StemCell Tech, 10971) and 5 ng/ml IL-15 to induced SP T cells. During T cell differentiation, half media changes were conducted every 2-3 days. T cell differentiation using the OP9-DL1 co-culture system was conducted following previous reports (Holmes and Zúñiga-Pfücker, 2009) (Themeli et al., 2013). Briefly, day 8 CD34^+ HE cells were seeded on OP-DL1 stromal cells and co-cultured with OP9 media (α-MEME, 20% FBS, 1% penicillin-streptomycin, 1 mM None-essential amino acids, 2 mM L-Glutamine, 10 μM 2-Mercaptoethanol, 50 μg/ml 2-phospho-L-ascorbic acid) supplemented with 10 ng/ml SCF, 5 ng/ml FLT3, and 10 ng/ml IL-7. Cells were mechanically dissociated and filtered through 40 μm strainers to be seeded on new stromal cells every five days.

[1] = after 35 days, versus without IL-3

B1: IL-3: interleukin-3, cytokine added at 5 ng/ml (first week only) to the first differentiation medium (protein, UniProt P08700 20-152, looked up)
Interleukin-3: APMTQTTPLKTSWVNCSNMIDEIITHLKQPPLPLLDFNNLNGEDQDILMENNLRRPNLEAFNRAVKSLQNASAIESILKNLLPCLPLATAAPTRHPIHIKDGDWNEFRRKLTFYLKTLENAQAQQTTLSLAIF
With B1 the “cell proliferation (CD5+CD7+ T cell progenitors and CD33+ cells)” value (Day 14, effect not restricted to lymphoid cells) was “promoted cell proliferation”, the “Yield of CD3+ cells per 1000 CD34+ HE cells” value [1] was “increased; also recorded: modest increase” and the “frequency of CD3+ cells” value [1] was “slight reduction”.
